According to patent publication US9758501B2, “Fluorophore 3-hydroxyflavone” (TUBITAK (TURKIYE BILIMSEL VE TEKNOLOJIK ARASTIRMA KURUMU), priority 2013, dated 2017):

Assay: Solubility in water

For “N-(3-hydroxy-4′-flavonyl)-N,N,N-trimethylammonium sulphate [3-HFNMe3]”, the solubility in water was “highly water soluble”.
